System: Langerhans cells generated in vitro
Assay: Chemoattraction and migration of Langerhans cells of Example 6
Assay type: cell-based, human

In the case of `O=[N+]([O-])c1cc([N+](=O)[O-])c(S(=O)(=O)O)c([N+](=O)[O-])c1`, the “migration of Langerhans cells” value is reported as “migrating”.
